Test results: publication PMC8352932, “Targeted activity of the small molecule kinase inhibitor Pz-1 towards RET and TRK kinases” (Scientific Reports, 2021)
Where “and” joins values, the source holds several entries; their conditions need not be identical. Identical values can stand only once.

Chains of the proteins cited; added tags and fusions are not shown. Lines headed by an entry give the natural chain unless they say otherwise; changes in a name come on top. Residues count along the entry.
UniProt P35918, 20-1345 limits assumed: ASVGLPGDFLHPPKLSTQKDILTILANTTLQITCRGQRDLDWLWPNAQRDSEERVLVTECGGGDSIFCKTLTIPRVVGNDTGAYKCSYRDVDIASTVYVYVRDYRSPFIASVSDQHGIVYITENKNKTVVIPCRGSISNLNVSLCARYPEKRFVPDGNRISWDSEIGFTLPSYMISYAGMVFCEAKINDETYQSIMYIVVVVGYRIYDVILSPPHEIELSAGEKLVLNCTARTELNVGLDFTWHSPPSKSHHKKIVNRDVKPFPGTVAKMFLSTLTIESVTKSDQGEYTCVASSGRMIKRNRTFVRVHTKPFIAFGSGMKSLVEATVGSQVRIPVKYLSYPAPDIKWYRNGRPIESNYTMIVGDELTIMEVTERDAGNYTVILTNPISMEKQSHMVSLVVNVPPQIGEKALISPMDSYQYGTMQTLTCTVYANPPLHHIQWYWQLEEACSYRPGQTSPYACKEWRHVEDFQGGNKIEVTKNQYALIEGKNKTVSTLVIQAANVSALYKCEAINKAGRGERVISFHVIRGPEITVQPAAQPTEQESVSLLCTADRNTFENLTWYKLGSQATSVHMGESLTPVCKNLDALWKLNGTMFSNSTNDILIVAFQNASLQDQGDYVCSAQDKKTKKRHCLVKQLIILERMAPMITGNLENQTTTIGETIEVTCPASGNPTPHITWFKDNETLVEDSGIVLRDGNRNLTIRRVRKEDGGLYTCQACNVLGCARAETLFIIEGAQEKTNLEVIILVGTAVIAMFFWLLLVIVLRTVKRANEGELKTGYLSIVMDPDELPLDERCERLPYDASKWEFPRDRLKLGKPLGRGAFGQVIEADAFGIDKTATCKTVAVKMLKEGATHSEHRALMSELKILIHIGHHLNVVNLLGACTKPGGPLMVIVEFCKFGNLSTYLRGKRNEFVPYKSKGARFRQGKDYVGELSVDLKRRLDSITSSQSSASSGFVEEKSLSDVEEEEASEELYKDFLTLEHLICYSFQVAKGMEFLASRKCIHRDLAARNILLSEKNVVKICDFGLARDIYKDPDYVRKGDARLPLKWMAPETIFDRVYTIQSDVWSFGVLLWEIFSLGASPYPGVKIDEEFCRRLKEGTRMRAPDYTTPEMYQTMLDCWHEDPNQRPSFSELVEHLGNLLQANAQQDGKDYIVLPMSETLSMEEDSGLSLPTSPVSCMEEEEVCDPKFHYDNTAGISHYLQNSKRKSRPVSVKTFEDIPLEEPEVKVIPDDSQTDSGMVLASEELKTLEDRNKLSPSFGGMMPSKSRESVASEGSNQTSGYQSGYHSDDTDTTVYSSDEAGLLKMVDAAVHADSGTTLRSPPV
UniProt P04629, 33-796 limits assumed: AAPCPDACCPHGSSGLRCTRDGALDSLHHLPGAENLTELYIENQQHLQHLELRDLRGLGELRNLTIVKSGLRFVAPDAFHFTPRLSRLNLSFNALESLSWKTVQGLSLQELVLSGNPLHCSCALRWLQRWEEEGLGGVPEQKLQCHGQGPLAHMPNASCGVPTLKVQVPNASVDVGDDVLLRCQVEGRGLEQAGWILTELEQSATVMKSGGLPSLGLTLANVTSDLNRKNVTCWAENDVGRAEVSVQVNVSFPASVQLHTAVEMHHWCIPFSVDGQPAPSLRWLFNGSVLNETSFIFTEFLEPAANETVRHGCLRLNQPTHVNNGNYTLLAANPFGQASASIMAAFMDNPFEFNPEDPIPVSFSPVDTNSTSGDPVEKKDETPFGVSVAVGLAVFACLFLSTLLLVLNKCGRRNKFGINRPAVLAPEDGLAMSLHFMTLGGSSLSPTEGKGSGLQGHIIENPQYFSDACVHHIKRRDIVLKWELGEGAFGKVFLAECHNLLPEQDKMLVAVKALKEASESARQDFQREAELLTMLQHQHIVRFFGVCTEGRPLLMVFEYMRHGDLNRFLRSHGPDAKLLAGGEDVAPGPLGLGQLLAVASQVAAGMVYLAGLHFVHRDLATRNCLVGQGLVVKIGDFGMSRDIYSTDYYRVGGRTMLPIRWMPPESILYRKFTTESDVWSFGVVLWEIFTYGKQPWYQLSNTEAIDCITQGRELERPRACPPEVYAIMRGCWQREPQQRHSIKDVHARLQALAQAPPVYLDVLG
UniProt Q16288, 32-839 limits assumed: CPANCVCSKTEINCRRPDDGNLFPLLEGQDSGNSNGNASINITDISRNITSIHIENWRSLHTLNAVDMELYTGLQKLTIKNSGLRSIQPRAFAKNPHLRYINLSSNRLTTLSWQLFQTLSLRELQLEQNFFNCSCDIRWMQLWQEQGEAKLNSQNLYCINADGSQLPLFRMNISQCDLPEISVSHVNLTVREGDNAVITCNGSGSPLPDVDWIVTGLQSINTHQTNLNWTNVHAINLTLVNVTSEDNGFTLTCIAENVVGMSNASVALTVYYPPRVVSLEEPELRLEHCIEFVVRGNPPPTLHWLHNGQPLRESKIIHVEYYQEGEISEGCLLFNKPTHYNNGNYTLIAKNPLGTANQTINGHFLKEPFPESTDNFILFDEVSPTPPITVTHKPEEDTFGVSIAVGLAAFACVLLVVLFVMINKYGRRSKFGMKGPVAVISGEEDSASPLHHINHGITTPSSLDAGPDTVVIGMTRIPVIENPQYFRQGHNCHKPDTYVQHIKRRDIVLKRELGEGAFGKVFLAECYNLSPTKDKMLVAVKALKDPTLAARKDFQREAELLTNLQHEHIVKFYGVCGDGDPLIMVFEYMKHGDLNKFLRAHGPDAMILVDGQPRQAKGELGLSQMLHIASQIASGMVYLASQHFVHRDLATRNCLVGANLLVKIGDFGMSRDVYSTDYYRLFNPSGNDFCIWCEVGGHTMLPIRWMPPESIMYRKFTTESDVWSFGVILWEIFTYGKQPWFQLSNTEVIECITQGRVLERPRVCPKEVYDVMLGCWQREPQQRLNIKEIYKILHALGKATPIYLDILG
UniProt Q16620, 32-822 limits assumed: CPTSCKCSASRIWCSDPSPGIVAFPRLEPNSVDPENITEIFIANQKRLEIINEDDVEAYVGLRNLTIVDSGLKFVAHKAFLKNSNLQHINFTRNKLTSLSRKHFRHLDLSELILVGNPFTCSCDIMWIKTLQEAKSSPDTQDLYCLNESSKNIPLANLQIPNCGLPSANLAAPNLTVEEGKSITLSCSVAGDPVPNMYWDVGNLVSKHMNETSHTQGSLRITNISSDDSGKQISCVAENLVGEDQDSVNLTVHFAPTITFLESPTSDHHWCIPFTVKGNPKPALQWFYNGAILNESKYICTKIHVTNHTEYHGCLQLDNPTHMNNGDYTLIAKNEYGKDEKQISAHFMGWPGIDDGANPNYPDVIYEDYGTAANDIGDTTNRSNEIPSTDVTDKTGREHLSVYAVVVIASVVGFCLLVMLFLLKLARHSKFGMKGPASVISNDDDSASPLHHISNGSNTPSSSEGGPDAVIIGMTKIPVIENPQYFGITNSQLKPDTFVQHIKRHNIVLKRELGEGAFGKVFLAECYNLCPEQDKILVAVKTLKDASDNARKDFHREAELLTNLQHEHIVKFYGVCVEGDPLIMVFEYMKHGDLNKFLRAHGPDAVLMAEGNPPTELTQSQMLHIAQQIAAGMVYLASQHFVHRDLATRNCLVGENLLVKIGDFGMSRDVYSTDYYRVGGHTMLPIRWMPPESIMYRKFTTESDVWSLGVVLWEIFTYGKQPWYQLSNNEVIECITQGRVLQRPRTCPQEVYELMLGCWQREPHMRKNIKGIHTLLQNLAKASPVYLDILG
UniProt P07949, 713-1063 limits assumed: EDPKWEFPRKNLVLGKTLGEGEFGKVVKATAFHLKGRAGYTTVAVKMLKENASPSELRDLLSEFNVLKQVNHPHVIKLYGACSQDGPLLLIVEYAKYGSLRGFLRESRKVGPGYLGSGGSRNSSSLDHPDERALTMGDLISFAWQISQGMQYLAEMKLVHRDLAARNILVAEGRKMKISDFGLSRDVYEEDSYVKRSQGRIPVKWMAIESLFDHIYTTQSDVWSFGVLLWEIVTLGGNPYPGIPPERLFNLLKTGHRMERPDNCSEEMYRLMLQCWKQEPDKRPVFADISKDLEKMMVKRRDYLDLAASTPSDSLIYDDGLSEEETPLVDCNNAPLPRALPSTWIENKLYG

Columns and labels:
[1] = system: SHC and ERK1/2 phosphorylation; experiment: SHC and ERK1/2 phosphorylation in RET/TRKA-negative cells; conditions: up to 100 nM; B-CPAP, 8505C, A549, PC-9, Calu-1, HCT-116 (Nthy-ori-3-1: ERK partially inhibited at 100 nM)
[2] = system: NCI-60 Human Tumour Cell Lines; experiment: NCI 60 five-dose screen; format: cell-based
VEGFR2 [3] = experiment: In vivo VEGFR2 phosphorylation in tumours; conditions: 0.3, 1 or 3 mg/Kg; 8505C and HCT116 tumours
VEGFR2 [4] = target: VEGFR2 (Mus musculus, UniProt P35918); experiment: In vivo VEGFR2 phosphorylation in tumours; conditions: 0.3 mg/kg; Pz-1 sensitive and resistant RET or TRKA-expressing NIH3T3 tumours
[5] = system: Ba/F3 cells expressing TPM3-TRKA, CCDC6-RET, RET C634R or RET M918T; experiment: IL-3-independent growth of transformed Ba/F3; conditions: read-out: IC50, IL-3-independent growth, range over TPM3-TRKA
Calu-1 cells (KRAS G12C) = experiment: Growth curves, cell proliferation; conditions: read-out: IC50 dose nM (95% CI), Calu-1, NSCLC
[6] = system: Nthy-ori-3-1 cells (SV40 LT); experiment: Growth curves, cell proliferation; conditions: read-out: IC50 dose nM (95% CI); Nthy-ori-3-1, SV40 LT
TT cells (RET C634W) = experiment: Growth curves, cell proliferation; conditions: read-out: IC50 dose nM (95% CI), MTC
[7] = system: MZ-CRC-1 cells (RET M918T); experiment: Growth curves, cell proliferation; conditions: read-out: IC50 dose nM (95% CI), MZ-CRC-1, MTC
[8] = system: Lc-2/ad cells (CCDC6-RET); experiment: Growth curves, cell proliferation; conditions: read-out: IC50 dose nM (95% CI), NSCLC
[9] = system: PC-9 cells (HER1 delLREA); experiment: Growth curves, cell proliferation; conditions: read-out: IC50 dose nM (95% CI), PC-9, NSCLC
[10] = system: HCT-116 cells (KRAS G38A); experiment: Growth curves, cell proliferation; conditions: read-out: IC50 dose nM (95% CI), HCT-116, CRC
8505C cells (BRAF V600E) = experiment: Growth curves, cell proliferation; conditions: read-out: IC50 dose nM (95% CI), ATC
A549 cells (KRAS G12S) = experiment: Growth curves, cell proliferation; conditions: read-out: IC50 dose nM (95% CI), A549, NSCLC
[11] = system: B-CPAP cells (BRAF V600E); experiment: Growth curves, cell proliferation; conditions: read-out: IC50 dose nM (95% CI), PTC
KM12 cells (TPM3-TRKA) = experiment: Growth curves, cell proliferation; conditions: read-out: IC50 dose nM (95% CI), KM12, CRC
TRKA in KM12 cells = TRKA in KM12 cells (Homo sapiens, UniProt P04629+P06753); experiment: TRKA autophosphorylation and signalling in KM12 cells (immunoblot); conditions: 1 nM, 2 h
[12] = target: TRKA phosphorylation in NIH3T3 TPM3-TRKA tumours (Homo sapiens, UniProt P04629+P06753); experiment: Time course in vivo target inhibition, TRKA
[13] = system: NCOA4-RET / CCDC6-RET and NCOA4-RET mutants; conditions: RET V804M; cited from earlier work
[14] = system: NIH3T3 NCOA4-RET G810R tumours; experiment: Xenograft tumour growth; conditions: 16 days
NIH3T3 TPM3-TRKA tumours = experiment: Xenograft tumour growth; conditions: 17 days
TT cells xenografts = experiment: Xenograft tumour growth; conditions: 28 days
[15] = system: MZ-CRC-1 cells xenografts; experiment: Xenograft tumour growth; conditions: 28 days
KM12 cells xenografts = experiment: Xenograft tumour growth; conditions: 16 days
[16] = system: NIH3T3 TPM3-TRKA G595R tumours; experiment: Xenograft tumour growth; conditions: all the doses (0.3, 1, 3 mg/Kg) oral daily, 17 days
NIH3T3 NCOA4-RET tumours = experiment: Xenograft tumour growth; conditions: 16 days
8505C tumours = experiment: Xenograft tumour growth; conditions: 25 days
HCT-116 xenografts = experiment: Xenograft tumour growth; conditions: 37 days
[17] = system: human cancer cells carrying either RET- or TRKA oncoproteins; experiment: Proliferation of human cancer cells, summary of the abstract; conditions: read-out: IC50 proliferation
[18] = system: TPM3-TRKA and TPM3-TRKA mutants; experiment: TRKA phosphorylation in transfected HEK 293 T cells (immunoblot); conditions: 2 h
[19] = system: RET in TT, MZ-CRC-1, TPC-1, Lc-2/ad cells; experiment: RET autophosphorylation in cancer cells (immunoblot); conditions: 1 nM, 2 h; MTC, PTC and NSCLC cells
[20] = system: NIH3T3 NCOA4-RET, NCOA4-RET G810R, TPM3-TRKA, TPM3-TRKA G595R cells; experiment: Proliferation and phosphorylation in transformed NIH3T3 fibroblasts; conditions: NIH3T3 transfectants
TRKA = TRKA (Homo sapiens, UniProt P04629); experiment: TRK binding assay (DiscoveRx), TRKA; conditions: read-out: IC50 (abstract)
[21] = system: NCOA4-RET / CCDC6-RET and NCOA4-RET mutants; experiment: RET phosphorylation in transfected HEK 293 T cells (immunoblot); conditions: for resistance to Pz-1 (phosphorylation): HEK 293 T, 2 h
TRKC = TRKC (Homo sapiens, UniProt Q16288); experiment: TRK binding assay (DiscoveRx), TRKC; conditions: read-out: IC50 (abstract)
[22] = system: RET-/TRKA-driven and negative cancer cell lines; experiment: Cell cycle analysis by flow cytometry; conditions: 48 h
TRKB = TRKB (Homo sapiens, UniProt Q16620); experiment: TRK binding assay (DiscoveRx), TRKB
[23] = system: TT, MZ-CRC-1, TPC-1, Lc-2/ad, KM12 cells; experiment: Cell viability, CellTiter 96 (MTS); conditions: 1 nM, single dose, 48 and 72 h
VEGFR2 [24] = conditions: VEGFR2 kinase; cited from earlier work
[25] = target: RET phosphorylation in NIH3T3 NCOA4-RET tumours (Homo sapiens, UniProt P07949); experiment: Time course in vivo target inhibition, RET; conditions: single oral dose 0.3, 1 and 3 mg/kg; partially restored after 24 h

Cn1cc(-c2ccc3c(c2)ncn3-c2ccc(CC(=O)Nc3cc(C(C)(C)C)on3)cc2)cn1
SHC and ERK1/2 phosphorylation [1]: No inhibition of SHC and ERK1/2 phosphorylation
growth inhibition ([2]; KM12, only such cell line of the panel): strong growth inhibition at a low (2 digit) nM dose
lethality ([2]; NCI 60 panel): No significant lethality was observed
VEGFR2 and downstream signalling in tumours (VEGFR2 [3]): displayed inhibition of VEGFR2 but not of SHC, MAPK or PLCγ
VEGFR2 inhibition in tumours (VEGFR2 [4]): already detectable
IC50 [5]: 0.3 to 1.6 nM
IC50 (Calu-1 cells (KRAS G12C)): > 100 nM
IC50 [6]: > 100 nM
IC50 (TT cells (RET C634W)): 1 nM and 0.77 nM
IC50 [7]: 1 nM and 0.72 nM
IC50 [8]: 1 nM and 0.52 nM
IC50 [9]: > 100 nM
IC50 [10]: > 100 nM
IC50 (8505C cells (BRAF V600E)): > 100 nM
IC50 (A549 cells (KRAS G12S)): > 100 nM
IC50 [11]: > 100 nM
IC50 (KM12 cells (TPM3-TRKA)): 1.6 nM and 1.66 nM
TRKA autophosphorylation and SHC and ERK1/2 phosphorylation (TRKA in KM12 cells): inhibited
time after which TRKA phosphorylation was fully restored ([12]; single oral dose 0.3 mg/Kg): 8 h
time after which TRKA phosphorylation was fully restored ([12]; single oral dose 1 and 3 mg/Kg): 12 h
effect of gatekeeper mutation on Pz-1 activity [13]: did not impair Pz-1 activity
tumour growth ([14]; 0.3 mg/Kg oral daily): remained virtually unaffected
tumour growth ([14]; 1 mg/Kg oral daily): remained virtually unaffected
reduction of tumour volume ([14]; 3 mg/Kg oral daily): about 50%
tumour growth (NIH3T3 TPM3-TRKA tumours; 0.3 mg/Kg oral daily): but not TPM3-TRKA tumour growth
tumour growth (NIH3T3 TPM3-TRKA tumours; 1 mg/Kg oral daily): Complete tumour growth inhibition
tumour growth (NIH3T3 TPM3-TRKA tumours; 3 mg/Kg oral daily): Complete tumour growth inhibition
tumour growth (TT cells xenografts; 0.3 mg/Kg oral daily): < 20 % of the vehicle control
tumour growth (TT cells xenografts; 1 mg/Kg oral daily): 15 % of the vehicle
tumour growth ([15]; 0.3 mg/Kg oral daily): 36 % of the vehicle control
tumour growth ([15]; 1 mg/Kg oral daily): 15 % of the vehicle
tumour growth (KM12 cells xenografts; 0.6 mg/Kg oral daily): 35 % of the control
tumour growth (KM12 cells xenografts; 3 mg/Kg oral daily): 15 % of the control
tumour growth [16]: remained unaffected
tumour growth (NIH3T3 NCOA4-RET tumours; 0.3 mg/Kg oral daily): completely block
tumour growth (NIH3T3 NCOA4-RET tumours; 1 mg/Kg oral daily): Complete tumour growth inhibition
tumour growth (NIH3T3 NCOA4-RET tumours; 3 mg/Kg oral daily): Complete tumour growth inhibition
tumour growth inhibition (8505C tumours; 0.3 mg/Kg oral daily): did not exert any detectable inhibition
tumour growth (8505C tumours; 1 mg/Kg oral daily): 50 % of the vehicle control
tumour growth (8505C tumours; 3 mg/kg oral daily): 50 % of the vehicle control
tumour growth reduction (HCT-116 xenografts; 0.6 mg/Kg oral daily): 60 % reduction
tumour growth reduction (HCT-116 xenografts; 3 mg/Kg oral daily): 50 % reduction
IC50 [17]: 1 nM
reduction of drug sensitivity (phosphorylation) ([18]; TPM3-TRKA F589L): about 10 folds
resistance to Pz-1 (phosphorylation) ([18]; TPM3-TRKA G595R): > 30 fold
effect of mutation on sensitivity to Pz-1 ([18]; TPM3-TRKA G667C): did not affect sensitivity to Pz-1
RET autophosphorylation [19]: strongly inhibited
activity against NCOA4-RET relative to TPM3-TRKA [20]: about 5 folds
IC50 (TRKA): < 1 nM
resistance to Pz-1 (phosphorylation) ([21]; NCOA4-RET G810R): > 25 fold
resistance to Pz-1 (phosphorylation) ([21]; NCOA4-RET G810S): > 5 fold
sensitivity of RET mutants to Pz-1 inhibition ([21]; NCOA4-RET Y806N, L730I/V, E732K, V738A, S904F and all tested mutants except G810): remained sensitive to Pz-1 inhibition
IC50 ([21]; read-out: half-maximal inhibitory Pz-1 dose, NCOA4-RET G810S, Fig. 6 and data not shown): 5 nM
IC50 (TRKC): < 1 nM
cell cycle distribution ([22]; 1 nM, RET-driven TPC-1, TT, MZ-CRC-1, Lc-2/ad): reduction of the percentage of cells in S and G2/M phases and an increase of cells in G0/G1 phase
cell cycle distribution ([22]; 10 nM, KM12 (not in TRKA-negative HCT-116)): strong reduction of S and G2/M phases
cell cycle distribution ([22]; up to 100 nM, RET-negative B-CPAP, 8505C, Nthy-ori-3-1, A549, PC-9, Calu-1): basically unaffected
Kd (TRKB): < 1 nM and 0.78 nM
IC50 (TRKB; read-out: IC50 (abstract)): < 1 nM
cell metabolic activity [23]: modestly reduce
IC50 (VEGFR2 [24]): < 1 nM
time up to which RET was inhibited [25]: 12 h
